doi:10.1101/2023.06.13.544671

Key:
[1] = target: nucleosome (fluorescently labelled histone octamer) reconstituted on lambda DNA (UniProt P04911); experiment: two-colour single-molecule colocalisation on DNA (optical tweezers with confocal microscopy); JFX650-labelled remodeler on sparse lambda nucleosome arrays (Cy3- or JFX554-labelled H2A) held at ~5 pN; 1 mM ATP; dwell time of the non-diffusive state (includes translocation) of remodelers within ~500 bp of a nucleosome, double exponential fit
[2] = target: nucleosome (fluorescently labelled histone octamer) reconstituted on lambda DNA (UniProt P04911); experiment: two-colour single-molecule colocalisation on DNA (optical tweezers with confocal microscopy); JFX650-labelled remodeler on sparse lambda nucleosome arrays (Cy3- or JFX554-labelled H2A) held at ~5 pN; 1 mM ATPγS; dwell time of the non-diffusive state of remodelers within ~500 bp of a nucleosome, double exponential fit
[3] = target: nucleosome (fluorescently labelled histone octamer) reconstituted on lambda DNA (UniProt P04911)
[4] = target: nucleosome (fluorescently labelled histone octamer) reconstituted on lambda DNA (UniProt P04911); remark: listed apart in the source
[5] = target: nucleosome (fluorescently labelled histone octamer) reconstituted on lambda DNA (UniProt P04911); experiment: two-colour single-molecule colocalisation on DNA (optical tweezers with confocal microscopy); JFX650-labelled remodeler on sparse lambda nucleosome arrays (Cy3- or JFX554-labelled H2A) held at ~5 pN; no ATP; dwell time of the non-diffusive state of remodelers within ~500 bp of a nucleosome, double exponential fit

Row | Substance | half-life of the non-diffusive state upon nucleosome encounter [1] [s] | half-life of the non-diffusive state upon nucleosome encounter [2] [s] | half-life of nucleosome translocation events, 1 mM ATP [3] [s] | average nucleosome translocation speed, 1 mM ATP [4] [bp/s] | median duration of uninterrupted, speed-constant nucleosome translocation, 1 mM ATP [4] [s] | half-life of the non-diffusive state upon nucleosome encounter [5] [s]
1 | ISW2 chromatin remodeling complex with Isw2-3xFlag-HaloTag (from UniProt Q08773 1-1120) | 12 | 28 | 17 | 29 | 22 | 28
2 | RSC chromatin remodeling complex with Sth1-3xFlag-HaloTag (from UniProt P32597 1-1359) | 23 | 28 | 20 | 29 | 33 | 18
